Antibody variant affinities, Ab-91 heavy chain, assay 2

Data: MIT Lincoln Laboratory AlphaSeq set, Engelhart et al. 2022, doi:10.1038/s41597-022-01779-4, as distributed in FLAb.

The target is the same throughout: PDVDLGDISGINAS, from the HR2 region of SARS-CoV-2 spike.

Ab-91 is the parent antibody, in scFv form: VL, then three GGGGS repeats, then VH. The light chain is unchanged in all variants.
VL: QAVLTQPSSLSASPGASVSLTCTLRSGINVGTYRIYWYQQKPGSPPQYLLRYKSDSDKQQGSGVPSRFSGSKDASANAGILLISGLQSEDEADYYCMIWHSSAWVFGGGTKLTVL
VH: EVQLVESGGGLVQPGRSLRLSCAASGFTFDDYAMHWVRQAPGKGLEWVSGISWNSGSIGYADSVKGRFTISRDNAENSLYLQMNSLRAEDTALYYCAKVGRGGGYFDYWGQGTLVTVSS

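Phage display of a naive human antibody library on the peptide gave the parent. In library AAYL51, one, two or three CDR residues were substituted; doubles and triples were drawn at random. The assay is AlphaSeq: two haploid yeast populations carry antibody and antigen on their surface. After mating in shaken culture at 30 °C for 16 h, diploids were selected and their barcode pairs sequenced. Each replicate has its own calibration line, from reference interactions of the BCL2 family. The assay was run in three technical replicates.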

Positions count from residue 1 of the parent VH; I51H puts H in place of I.
Values are log10 of the apparent Kd in nM; lower means stronger binding.
A pair that was not seen in that replicate is written "nd"; this usually means weak binding, but a binder can also be missed.
For reference, the parent read 1.86 as the reference entry and 0.88 as a member of this library.
Three control strains display no target. For library AAYL51, 21% of the pairings with them gave a signal, with a median of 4.54 and one signal in twenty below 3.26, so weak values seen in few replicates may be background. The control count says in how many pairings with the empty strains this scFv gave a signal.

With I51H/I58K/G104Q the result was 5.04, nd, nd (controls 2 of 9).
With D30Q/S57K/Y105F the result was 5.09, 5.12, 4.33 (controls 5 of 9).
With F29E/H35L/A61S the result was nd, nd, nd (controls 1 of 9).
With G56W/S57C/V64P the result was nd, nd, nd (controls 1 of 9).
With D31N/M34I/H35R the result was nd, nd, nd (controls 1 of 9).
With T28N/G50I/D107T the result was nd, nd, nd (controls 0 of 9).
With G56F/I58Y/Y105E the result was 5.38, 3.92, nd (controls 1 of 9).
With G26Y/I58H/G103F the result was nd, nd, nd (controls 1 of 9).
With G26S/G102Y the result was nd, nd, nd (controls 1 of 9).
With D31A/G50F/Y60C the result was nd, nd, nd (controls 0 of 9).
With D31S/H35S/N54Q the result was nd, nd, nd (controls 0 of 9).
With F27D/Y32P/N54G the result was nd, nd, nd (controls 1 of 9).
With F29N/H35S/S57W the result was 4.00, nd, nd (controls 3 of 9).
With G26N/D31W/W53D the result was nd, nd, nd (controls 0 of 9).
With D31H/A33G/G56Q the result was 0.41, 0.33, -0.45 (controls 8 of 9).
With Y32A/K65M/Y108A the result was 0.63, 0.72, -0.29 (controls 2 of 9).
With V64N/G103Y/Y105K the result was nd, nd, nd (controls 3 of 9).
With W53T/S63W the result was 1.08, 1.03, 0.58 (controls 3 of 9).
With Y32V/N54D/G104S the result was 0.73, 0.82, 0.20 (controls 7 of 9).
With F27S/I51P/G100V the result was 3.99, 4.92, nd (controls 5 of 9).
With I51F/G56K/G104E the result was nd, nd, nd (controls 2 of 9).
With F29C/D107A the result was nd, 3.79, nd (controls 0 of 9).
With G26Q/G104N/Y108G the result was 3.58, 3.59, 4.63 (controls 1 of 9).
With Y32P/A33W/G56K the result was nd, nd, nd (controls 1 of 9).
With H35D/G59C/G103S the result was nd, nd, nd (controls 2 of 9).
With N54K/G100R/G102I the result was nd, nd, nd (controls 1 of 9).
With F27C/G100P/D107R the result was nd, nd, nd (controls 0 of 9).
With F29C/I51Y/A61N the result was 5.07, nd, nd (controls 3 of 9).
With S57I/V99S the result was nd, nd, nd (controls 0 of 9).
With D31C/S52L/I58Q the result was nd, 4.79, nd (controls 3 of 9).
With T28K/Y60Q/A61R the result was nd, 5.78, nd (controls 0 of 9).

The opening 5 entries, copied out:

changes,log10 Kd (nM) by replicate,empty controls
I51H/I58K/G104Q,"5.04, nd, nd",2 of 9
D30Q/S57K/Y105F,"5.09, 5.12, 4.33",5 of 9
F29E/H35L/A61S,"nd, nd, nd",1 of 9
G56W/S57C/V64P,"nd, nd, nd",1 of 9
D31N/M34I/H35R,"nd, nd, nd",1 of 9